Data on one molecule can be found in publication PMC9917735, “Optimization of the Hemolysis Assay for the Assessment of Cytotoxicity” (International Journal of Molecular Sciences, 2023).

The subject of the data set is washed human erythrocytes. The experiment in a line: Hemolysis assay, washed human erythrocytes. The following applies: 1% washed human erythrocytes, OD 570 nm, peptides 100 μM, 60 min 37 °C, pos. 10% Triton X-100, neg. PBS; 3 x 2 replicates.

The structures appear in SMILES notation.

Turning to `O` [dH2O, distilled water], the Calculated hemolysis ratio is listed as 71.2 ± 10.3%.
